Test results published in PubChem BioAssay (Tox21).
Values joined by “and” are separate entries in the source; they are usually repeats but may differ in a detail not shown here. Equal entries are not always repeated. This is a selection; strong and weak results do not stand in their true shares. Results filed as inconclusive are left out. Active and inactive are the calls of the source. Calls come from the whole dose curve; as a rule, active = well fitted cell-killing curve with a large enough effect in the repeat runs; inconclusive = weak or mixed curves, or effect the other way; inactive = no such curve, though single readings can be large or run the other way.

assay: qHTS assay for small molecule activators of the heat shock response signaling pathway - cell viability counter screen (AID 743209); conditions: HSE-bla HeLa viability, CellTiter-Glo luminescence, 5 h; at 62.6 µM (top of the series); note: nearly all actives have a fitted effect of over 50% in size
Excerpt: U.S. Tox21 Program National Center for Advancing Translational Sciences [NCATS] NIH Chemical Genomics Center [NCGC] U.S. Environmental Protection Agency [EPA] National Institutes of Environmental Health Sciences [NIEHS] National Toxicology Program [NTP] U.S. Food and Drug Administration [FDA] Tox21 Assay Overview: Various chemicals, environmental and physiological stress conditions may lead to the activation of heat shock response/ unfolded protein response (HSR/UPR). There are three heat shock transcription factors (HSFs) (HSF-1, -2, and -4) mediating transcriptional regulation of the human HSR. To identify the compounds that activate HSR signaling, HSE-bla HeLa cell line (Invitrogen, Carlsbad, CA, USA) containing a beta-lactamase reporter gene under the control of the heat shock response elements was used to screen Tox21 10K compound library. The cytotoxicity of the Tox21 compound library against the HSE-bla HeLa cell line was tested in parallel by measuring the cell viability using CellTiter-Glo assay (Promega, Madison, WI) in the same wells.
Tox21 Assay Protocol Summary: The CellSensor HSE-bla HeLa cells (Invitrogen, Carlsbad, CA, USA) were dispensed at 1500 cells/6uL/well into 1536-well black wall/clear bottom plates using a Multidrop combi (Thermo Fisher Scientific, Waltham, MA) dispenser. After the assay plates were incubated at 37 C and 5% CO2 overnight, 23 nL of compounds dissolved in DMSO, positive controls or DMSO only was transferred to the assay plate by a Pintool station (Kalypsys, San Diego, CA). The plates were incubated at 37 C for 5 h. After 1 uL of LiveBLAzerTM B/G FRET substrate was added using a Flying Reagent Dispenser (FRD, Beckman Coulter, Indianapolis, IN, USA), the plates were incubated at room temperature for 2.5 h, and fluorescence intensity was measured by an Envision plate reader (PerkinElmer, Shelton, CT). For cell viability readout that measures cytotoxicity, 3 ul/well of CellTiter-Glo reagent was added into the assay plates using a FRD. After 30 min incubation at room temperature, the luminescence intensity in the plates was measured using a ViewLux (PerkinElmer) plate reader.
% is set by controls: 0 for no effect and ±100 for the full control effect.

Row | SMILES | activity change, negative = cytotoxicity
1 | [NH4+].[O-][Cl+3]([O-])([O-])[O-] | inactive: 2.98%
2 | Cc1ccc([N+](=O)[O-])cc1[N+](=O)[O-] | inactive: -0.721% and inactive: -2.35%
3 | COP(C)(=O)OC | inactive: 3.33%
4 | CCOP(=O)(CC)Oc1ccc([N+](=O)[O-])cc1 (stereo not drawn) | inactive: -26.3%
5 | Cc1c([N+](=O)[O-])cccc1[N+](=O)[O-] | inactive: 0.241% and inactive: -6.34%
6 | C/C1=C2N=C(/C=C3N=C(/C(C)=C4\[N-][C@@](C)([C@@H]5N=C1[C@](C)(CCC(=O)NC[C@@H](C)OP(=O)([O-])O[C@H]1[C@@H](O)[C@@H](n6cnc7cc(C)c(C)cc76)O[C@@H]1CO)[C@H]5CC(N)=O)[C@@](C)(CC(N)=O)[C@@H]4CCC(N)=O)[C@@](C)(CC(N)=O)[C@@H]\3CCC(N)=O)C(C)(C)[C@@H]/2CCC(N)=O.[C-]#N.[Co+3] | inactive: 2.63%
7 | CP(=O)(O)OCCC[Si](O)(O)O | inactive: -7.32%
8 | Cc1ccc([N+](=O)[O-])c([N+](=O)[O-])c1 | inactive: 7.06%
9 | O=[N+]([O-])OCC(CO[N+](=O)[O-])(CO[N+](=O)[O-])CO[N+](=O)[O-] | inactive: 5.06%
10 | CC(C)N(CCO)C(C)C | inactive: -13.1%
11 | OCCSCCO | inactive: 3.73%
12 | CCOP(=O)(CC)OCC | inactive: 5.59%
13 | CC(C)OP(C)(=O)OC(C)C | inactive: -0.332% and inactive: 8.12%
14 | O=[N+]([O-])[O-].[NH4+] | inactive: -2.85% and inactive: -2.38%
15 | COc1ccc([N+](=O)[O-])cc1[N+](=O)[O-] | inactive: -2.48%

same assay, conditions: HSE-bla HeLa viability, CellTiter-Glo luminescence, 5 h; at 81.1 µM (top of the series)

Row | SMILES | activity change, negative = cytotoxicity
16 | CCN(CC)CCCl | inactive: 6.14%
17 | O=[N+]([O-])c1cccc([N+](=O)[O-])c1 | inactive: -20.6%
18 | [NH4+].[O-][Cl+3]([O-])([O-])[O-] | inactive: 2.5%
19 | COP(C)(=O)OC | inactive: 1.47%
20 | N=C(N)N[N+](=O)[O-] | inactive: -13.6%
21 | Cc1ccc([N+](=O)[O-])c([N+](=O)[O-])c1 | inactive: -0.786%
22 | OCCSCCO | inactive: 13.9%
23 | Nc1cc([N+](=O)[O-])cc([N+](=O)[O-])c1O | inactive: 4.49%
